We go through one compound from ChEMBL document CHEMBL2346548, “Design, synthesis, and structure-activity relationship studies of tryptanthrins as antitubercular agents” (J Nat Prod, 2013).

In this test the test system is Mycobacterium tuberculosis. As to the kind of experiment: Antitubercular activity against Mycobacterium tuberculosis Erdman ATCC 35801 infected in C57BL/6 mouse assessed as viable bacterial load in lung at 10 mg/kg/day through gavage 5 days per week for 4 weeks starting on 10th day post-infection (reference value: 6.49 +/- 0.10 log10CFU/lung). Format: functional.

Consider `CO[C@H]1/C=C/O[C@@]2(C)Oc3c(C)c(O)c4c(O)c(c(/C=N/N5CCN(C)CC5)c(O)c4c3C2=O)NC(=O)/C(C)=C\C=C\[C@H](C)[C@H](O)[C@@H](C)[C@@H](O)[C@@H](C)[C@H](OC(C)=O)[C@@H]1C` [RIFAMPIN], for which the log10cfu is on record as 5.75.
